Amino acid sequences for entries named in this document (tags omitted).
UniProt Q63380, whole entry: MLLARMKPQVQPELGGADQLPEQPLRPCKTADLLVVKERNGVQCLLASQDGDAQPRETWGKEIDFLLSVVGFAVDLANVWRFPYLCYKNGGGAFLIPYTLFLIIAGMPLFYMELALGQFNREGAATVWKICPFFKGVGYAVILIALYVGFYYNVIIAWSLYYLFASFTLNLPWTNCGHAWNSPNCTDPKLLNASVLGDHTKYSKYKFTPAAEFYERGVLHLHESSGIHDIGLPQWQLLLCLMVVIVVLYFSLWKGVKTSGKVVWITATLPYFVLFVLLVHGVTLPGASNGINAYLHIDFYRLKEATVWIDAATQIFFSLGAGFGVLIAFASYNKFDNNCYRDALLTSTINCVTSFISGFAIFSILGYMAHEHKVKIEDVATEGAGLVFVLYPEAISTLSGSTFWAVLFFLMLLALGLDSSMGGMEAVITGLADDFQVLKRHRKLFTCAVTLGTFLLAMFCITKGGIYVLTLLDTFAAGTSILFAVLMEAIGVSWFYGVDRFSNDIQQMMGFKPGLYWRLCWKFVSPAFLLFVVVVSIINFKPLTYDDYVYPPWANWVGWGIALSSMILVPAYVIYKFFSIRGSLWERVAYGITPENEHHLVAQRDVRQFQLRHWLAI

According to ChEMBL document CHEMBL2321662, “Azepines and piperidines with dual norepinephrine dopamine uptake inhibition and antidepressant activity” (ACS Med Chem Lett, 2013):

Biological target: Transporter (Rattus norvegicus, UniProt Q63380)
Assay: Inhibition of NET in rat synaptosomal membrane
Format: cell membranes

- Ki: 4 nM
Compound: CN1Cc2c(N)cccc2C(c2ccccc2)C1 (racemic) [NOMIFENSINE]
